Results as given in patent US7879572B2, “Regulation of F1-ATPase beta subunit cellular location” (Board of Supervisors of Louisiana State University And …, priority 2004, dated 2011).
“Also recorded” adds a separate entry of the source. Like-named read-outs stand apart in the source and are kept apart here.

Amino acid sequences for entries named in this document (tags omitted). A change or cut given only in a name is not applied to a line headed by its entry. Residues count along the entry.
UniProt P41145: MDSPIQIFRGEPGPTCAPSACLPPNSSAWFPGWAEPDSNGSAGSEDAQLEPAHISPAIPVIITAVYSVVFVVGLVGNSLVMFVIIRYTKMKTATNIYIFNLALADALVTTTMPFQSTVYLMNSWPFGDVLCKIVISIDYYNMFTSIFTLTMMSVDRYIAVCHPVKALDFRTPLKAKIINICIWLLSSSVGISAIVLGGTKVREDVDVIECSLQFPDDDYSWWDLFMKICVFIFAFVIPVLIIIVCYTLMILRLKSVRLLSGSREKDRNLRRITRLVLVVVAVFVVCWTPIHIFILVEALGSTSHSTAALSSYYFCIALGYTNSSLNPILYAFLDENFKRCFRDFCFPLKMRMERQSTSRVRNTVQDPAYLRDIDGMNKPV
UniProt P32238, whole entry: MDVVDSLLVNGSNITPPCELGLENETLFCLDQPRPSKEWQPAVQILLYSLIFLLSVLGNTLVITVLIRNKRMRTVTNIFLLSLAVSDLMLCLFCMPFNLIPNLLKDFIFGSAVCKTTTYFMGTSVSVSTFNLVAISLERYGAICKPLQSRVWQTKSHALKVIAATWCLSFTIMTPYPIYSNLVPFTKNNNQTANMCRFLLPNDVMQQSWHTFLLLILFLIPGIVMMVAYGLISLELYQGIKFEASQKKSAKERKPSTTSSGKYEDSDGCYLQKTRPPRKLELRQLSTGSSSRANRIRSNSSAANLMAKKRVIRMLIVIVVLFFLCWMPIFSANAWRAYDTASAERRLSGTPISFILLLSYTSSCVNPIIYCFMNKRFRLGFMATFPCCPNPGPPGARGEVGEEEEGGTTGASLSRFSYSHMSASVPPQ
UniProt P25929, whole entry: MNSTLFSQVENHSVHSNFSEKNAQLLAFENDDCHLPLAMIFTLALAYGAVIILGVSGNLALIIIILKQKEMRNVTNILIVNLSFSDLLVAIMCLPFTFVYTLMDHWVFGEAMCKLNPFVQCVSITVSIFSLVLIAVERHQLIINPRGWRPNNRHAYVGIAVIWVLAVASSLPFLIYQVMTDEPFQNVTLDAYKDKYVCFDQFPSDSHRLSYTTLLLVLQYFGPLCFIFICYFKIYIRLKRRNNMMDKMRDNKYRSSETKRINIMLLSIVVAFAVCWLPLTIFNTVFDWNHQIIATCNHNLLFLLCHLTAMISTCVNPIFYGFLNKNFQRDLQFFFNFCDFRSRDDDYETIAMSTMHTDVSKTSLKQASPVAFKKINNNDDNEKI
UniProt P10719, 110-529: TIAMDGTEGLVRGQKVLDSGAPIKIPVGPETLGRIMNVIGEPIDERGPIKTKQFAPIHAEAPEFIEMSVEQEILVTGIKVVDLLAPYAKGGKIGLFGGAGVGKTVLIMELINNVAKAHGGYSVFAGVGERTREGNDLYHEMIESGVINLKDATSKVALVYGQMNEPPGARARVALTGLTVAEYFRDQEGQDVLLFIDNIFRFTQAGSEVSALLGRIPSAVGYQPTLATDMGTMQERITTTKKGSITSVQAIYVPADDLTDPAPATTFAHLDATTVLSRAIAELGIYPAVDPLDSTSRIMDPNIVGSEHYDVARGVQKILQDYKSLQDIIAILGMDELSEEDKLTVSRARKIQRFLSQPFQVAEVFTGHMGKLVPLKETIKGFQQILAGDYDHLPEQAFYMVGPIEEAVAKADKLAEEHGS
UniProt P10719, 47-529: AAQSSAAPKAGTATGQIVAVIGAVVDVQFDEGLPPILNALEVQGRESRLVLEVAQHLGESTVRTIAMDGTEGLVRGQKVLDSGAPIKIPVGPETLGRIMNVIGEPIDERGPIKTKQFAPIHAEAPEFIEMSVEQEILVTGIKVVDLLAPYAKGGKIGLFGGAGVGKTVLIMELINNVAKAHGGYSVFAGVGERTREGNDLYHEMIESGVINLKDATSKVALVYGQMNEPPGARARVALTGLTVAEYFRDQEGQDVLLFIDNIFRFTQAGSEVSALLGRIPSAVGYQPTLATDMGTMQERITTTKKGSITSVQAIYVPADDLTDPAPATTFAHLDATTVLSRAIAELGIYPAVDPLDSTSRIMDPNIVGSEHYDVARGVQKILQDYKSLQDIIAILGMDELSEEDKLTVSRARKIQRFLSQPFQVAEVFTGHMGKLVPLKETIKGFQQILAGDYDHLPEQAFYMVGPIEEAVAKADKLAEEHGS

Tests used:
[1] = system: breast cancer or prostate cancer tumor cell lines; experiment: Cancer cell apoptosis and survival under hypoxic challenge (planned); format: cell-based; settings: expected result of planned study
Description: Cancer cells. The effects of enterostatin on the response of cancer cells to hypoxic challenge will be studied. […] These transfected cells could also be used to search for small molecule agonists/antagonists or mimetics of enterostatin.

[2] = molecular target: kappa-opioid receptors (Homo sapiens, UniProt P41145); settings: cited from earlier work
[3] = system: plasma membranes from HepG2 cells; experiment: 125I-labelled free Apo A1 binding to HepG2 plasma membranes (planned); parameters: species or system human; settings: planned study
Description: HepG2 cells or primary hepatocytes cultures. […] The amount of the F1-ATPase β-subunit in the plasma membranes will be measured using the BATPS-GFP construct as described above.

[4] = system: F1-ATPase alpha subunit-RFP; experiment: Cellular location of F1-ATPase alpha subunit-RFP in transfected HepG2 cells (deconvolution/confocal microscopy); format: cell-based, human; settings: 0.5 or 2 μM enterostatin, 15, 30 or 60 min
Description: Generation of F1-ATPase alpha subunit-RFP fusion protein. The F1-ATPase α-subunit clone (1,662 bp) was generated by PCR from an amygdala cDNA library using F1-ATPase α-subunit forward primer (5′[…]3′ (SEQ ID NO. 3), Sac I recognition site underlined) and F1-ATPase α-subunit reverse primer (5′ […]3′ (SEQ ID NO. 4), Hind III recognition site underlined). The construct was then transformed into DH5α cells. Transformants were screened, and positive clones containing plasmid with the correct orientation of the insert were cultured.
(§1) Cell Culture and Transfection. Human liver cells (HepG2 cell line, Pennington Biomedical Research Center, Baton Rouge, La.) were grown and maintained in Dulbecco's modified eagle's medium (Gibco, Carlsbad, Calif.) containing 10% fetal bovine serum, penicillin (1,000 u/ml), and streptomycin (1,000 u/ml). For transient transfection experiments, the HepG2 cell line was seeded into 24-well plates (Corning, VWR, West Chester, Pa.) at 50-70% confluency. For each well of HepG2 cells, 0.8 μg of either the pATPase beta-GFP or pATPase alpha-RFP and 2.4 μl of Fugene6 (Roche, Indianapolis, Ind.) were incubated with 100 μl of Optimem (Gibco) for 30 min at room temperature. The cells were transfected using this mixture in 1 ml total volume for 16-18 h and visualized by microscopy 18-24 h after the transfection. […]

[5] = system: Human endothelial cells; experiment: Angiogenesis in human endothelial cells / in vitro adipose tissue angiogenesis assay (planned); format: cell-based; settings: expected result of planned study
Description: Human endothelial cells. Human endothelial cells derived from umbilical veins or other sources will be used to study the effect of enterostatin on angiogenesis. The ability to bind angiostatin will be correlated with the level of beta subunit F1 ATPsynthase in the plasma membranes, and the co-localization of angiostatin and enterostatin binding shown by confocal immunofluorescent microscopy. Further, the effect of transfection of BATPS-GFP construct on these functions will be studied. The effects of enterostatin on vessel proliferation in an in vitro assay of adipose tissue angiogenesis will also be studied.

[6] = intracerebroventricular vs intraperitoneal or intragastric administration; cited from earlier work
[7] = system: SK-N-MC neuroepithelioma cells; settings: read-out: Kd, binding to SK-N-MC neuroepithelioma cells; cited from earlier work
[8] = molecular target: cholecystokinin A receptors (Homo sapiens, UniProt P32238); settings: cited from earlier work
[9] = molecular target: Neuropeptide Y1 receptors (Homo sapiens, UniProt P25929); settings: cited from earlier work
[10] = in vivo; cited from earlier work
[11] = system: islet cells; settings: cited from earlier work
[12] = read-out: Kd, low affinity binding to brain membrane preparation; cited from earlier work
[13] = system: humans; settings: intravenous injection; cited from earlier work
[14] = molecular target: T1, F1-ATPase beta subunit-GFP (Rattus norvegicus, UniProt P10719); experiment: Cellular location of F1-ATPase beta subunit-GFP in transfected HepG2 cells (deconvolution/confocal microscopy); format: cell-based, human; settings: 0.5 and 2 uM enterostatin, 15, 30 or 60 min
T1 construct: The F1-ATPase β-subunit clone (1,254 bp) was generated by PCR; expressed in transfected cells; host or cells: HepG2 (human liver cells), transient transfection
Description: Generation of F1-ATPase beta subunit-GFP fusion protein. The F1-ATPase β-subunit clone (1,254 bp) was generated by PCR from an amygdala cDNA library using F1-ATPase β-subunit forward primer (5′[…]3′ (SEQ ID NO. 1), Sac I recognition site underlined) and F1-ATPase β-subunit reverse primer (5′[…]3′ (SEQ ID NO. 2), Hind III recognition site underlined), according to procedures described in Appendix B. The PCR product was cloned into the pEGFP-C1 vector (Clonetech, Palo Alto, Calif.) between the Sac I and Hind III sites as shown in FIG. 1A. The construct was then transformed into DH5α cells. Transformants were screened and positive clones containing plasmid with the correct orientation of the insert were cultured.
as §1, with “temperature.” for “temperature. The cells were transfected using this mixture in 1 ml total volume for 16-18 h and visualized by microscopy 18-24 h after the transfection.”

[15] = mainly into lymphatic system; cited from earlier work
[16] = system: galanin receptors; settings: cited from earlier work
[17] = system: sheep; settings: single-choice diet; cited from earlier work
[18] = system: rabbits; settings: single-choice diet; cited from earlier work
[19] = molecular target: T2, rat F1-ATPase β-subunit (Rattus norvegicus, UniProt P10719); experiment: 125I-β-casomorphin binding to recombinant F1-ATPase β-subunit, with and without cold enterostatin or analogs
T2 construct: made in house
Description: We have investigated that the binding activity of the purified protein with a labeled antagonist, β-casomorphin (18, 52), in the absence and presence of cold enterostatin. (See Appendix B) ^125I-β-casomorphin weekly binds to rat F1-ATPase β-subunit. Binding was promoted by low concentrations of cold enterostatin but displaced by higher concentrations. The relationship between binding activity and feeding behavior was studied by examining the ability of a number of enterostatin analogs to affect β-casomorphin binding to the F1-ATPase β-subunit.
It has been discovered that the ability of analogues to affect binding of a labeled β-casomorphin (an enterostatin antagonist (44, 52)) to recombinant rat F1-ATPase β-subunit was closely correlated with their enterostatin-like biological activity. […] To investigate the partitioning of the F1-ATPase β-subunit into plasma membranes, HepG2 cells were transfected with either F1-ATPase β-subunit-green fluorescent protein (GFP) or F1-ATPase α-subunit-red fluorescent protein (RFP) constructs. The effects of enterostatin on the intracellular localization of the proteins were studied using deconvolution or confocal microscopy. […]

[20] = system: rats; settings: cited from earlier work; for duration of action on feeding: single injection
[21] = system: baboons; settings: single-choice diet; cited from earlier work
[22] = rats, three-choice macronutrient diet

## CC(C)[C@H](N)C(=O)N1CCC[C@H]1C(=O)N[C@@H](CC(=O)O)C(=O)N1CCC[C@H]1C(=O)N[C@@H](CCCNC(=N)N)C(=O)O [enterostatin, Val-Pro-Asp-Pro-Arg]
[1]
  apoptosis and death of cancer cells: increase apoptosis and death of cancer cells
[2]
  binding to kappa-opioid receptors: not to bind
[3]
  binding of 125I-labelled free Apo A1 to plasma membranes: increases the binding
[4]
  distribution of expressed F1-ATPase alpha subunit-RFP: did not alter the location; also recorded: did not change the distribution
[5]
  angiogenesis: will inhibit angiogenesis
[6]
  gastric emptying: inhibition of gastric emptying was observed only after intracerebroventricular administration
[7]
  Kd: 40 nM
[8]
  binding to cholecystokinin A receptors: not to bind
[9]
  binding to Neuropeptide Y1 receptors: not to bind
[10]
  corticosterone secretion: enhanced corticosterone secretion
[11]; 16.7 mM glucose, enterostatin 10^−9 to 10^−5 M, dose-dependent
  insulin secretion from islets: inhibited insulin secretion
[11]; increase produced by U50,488 (100 nM)
  intracellular cyclic AMP content: reduced the increase in intracellular cyclic AMP content
[11]; stimulated by glybenclamide (5.0 and 10 μM), TPA (50 and 100 nM), U50,488 (100 nM)
  stimulated insulin secretion: also inhibited insulin secretion
[12]
  Kd: 230 nM
[13]
  food intake: has not been found to reduce food intake
  subjective feeling of hunger: reduce the subjective feeling of hunger
[14]
  location of F1-ATPase beta subunit-GFP: induced a movement of the protein to the perimeter of cells; also recorded: clearly relocated toward the cell periphery
[14]; listed as Enterostatin
  location of F1-ATPase beta subunit-GFP: induced movement of the F1-ATPase β-subunit-GFP to the periphery of cells
[15]
  absorption across the intestine: limited and slow
[16]
  binding to galanin receptors: not to bind
[17]
  food intake: reduce food intake
[18]
  food intake: reduce food intake
[19]; higher concentrations of cold enterostatin
  effect of cold enterostatin on 125I-β-casomorphin binding: displaced
[19]; low concentrations of cold enterostatin
  effect of cold enterostatin on 125I-β-casomorphin binding: promoted
[20]; chronic icv administration from mini-osmotic pumps, single-choice HF or two-choice HF/LF diet
  daily intake of dietary fat: attenuated the daily intake of dietary fat
[20]; chronic icv administration, HF or HF/LF diet
  fat deposition and body weight gain: reduction in fat deposition and body weight gain
[20]; inhibition at lower doses, stimulation at higher doses
  dose-response curve on food intake: biphasic
[20]; rats chronically treated, low-fat diet for seven days
  energy intake or change in body weight gain: no significant reduction
[20]; [22]
  carbohydrate or protein intake: no effect
  intake of the fat macronutrient: reduced intake of the fat macronutrient
[20]; rats, two-choice HF/LF diet
  diet intake, two-choice high-fat (HF) and low-fat (LF) paradigm: reduced only intake of the HF diet
[20]; rats adapted to a six-hour feeding schedule
  duration of action on feeding: lasting up to six hours
[20]; rats adapted to ad-libitum feeding
  duration of action on feeding: up to 24 hours
[21]
  food intake: reduce food intake
